Experimental findings from patent US20240409598A1, “PEPTIDE INHIBITORS OF INTERLEUKIN-23 RECEPTOR” (Janssen Biotech, Inc., priority 2021, published 2024) are described below.

The assay addresses T1, IL-23R (Homo sapiens, UniProt Q5VWK5).
T1 construct: host or cells: HEK293
T1 sequence (Q5VWK5 24-629): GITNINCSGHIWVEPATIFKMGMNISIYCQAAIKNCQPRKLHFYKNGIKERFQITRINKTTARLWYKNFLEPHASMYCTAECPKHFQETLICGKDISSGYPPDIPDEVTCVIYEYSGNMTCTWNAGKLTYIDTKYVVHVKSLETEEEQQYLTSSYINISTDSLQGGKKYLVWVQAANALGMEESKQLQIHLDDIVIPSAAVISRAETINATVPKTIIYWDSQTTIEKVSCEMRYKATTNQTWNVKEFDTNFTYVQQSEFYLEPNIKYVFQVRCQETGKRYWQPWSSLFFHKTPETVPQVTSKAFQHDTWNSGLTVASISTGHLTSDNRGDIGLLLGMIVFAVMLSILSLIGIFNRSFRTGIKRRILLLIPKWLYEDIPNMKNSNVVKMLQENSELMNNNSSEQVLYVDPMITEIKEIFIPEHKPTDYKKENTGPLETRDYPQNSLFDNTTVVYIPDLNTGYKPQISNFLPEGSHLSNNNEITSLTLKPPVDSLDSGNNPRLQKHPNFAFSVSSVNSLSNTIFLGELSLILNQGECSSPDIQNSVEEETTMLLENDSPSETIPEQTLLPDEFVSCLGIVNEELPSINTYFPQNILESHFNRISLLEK
Kind of assay: IL23R Reporter Assay. Format: cell-based. As to conditions: HEK293 cells containing IL-23R, IL-12Rβ1 and STAT-inducible luciferase reporter; 10 ng/ml IL-23; 5 h; table titled IL-23 Binding Data. On the technique in general: A reporter such as luciferase makes a cellular process visible.

As for “MeCO-r-Abu (1)-N-T-W-K(Ac)-aMeC (1)-AEF-2Nal-THP-E-N-3Pya-Sar-CONH2 [compound 478]”, the 50% inhibitory concentration (IC50) (in general, the concentration at which inhibition is half-maximal) was 1.3 nM. “MeCO-r-Pen-N-T-7MeW-K(Ac)-Pen-AEF-2Nal-THP-E-N-5MePyridinAla-Sar-CONH2 [compound 345]” yielded a half-inhibitory concentration (IC50) of 5 nM.
